Experimental data as given in ChEMBL document CHEMBL4376818, “Discovery of Novel Pyrazolo-pyridone DCN1 Inhibitors Controlling Cullin Neddylation” (J Med Chem, 2019).
Values after ≈ are worked out from the molar mass of the structure shown.

Experiment: Kinetic aqueous solubility of compound at pH 7.4
Assay type: physicochemical
Settings: buffer, read-out: Kinetic_solubility

CCN1C(=O)[C@@H](NC(=O)c2cccc(C)c2)[C@@H](c2ccc(F)cc2)c2c(C)nn(-c3ccccc3)c21 (relative stereo)
solubility kinetic: 16.6 µM (≈ 8.01 µg/mL)
